# In US6812230B2, “Non-peptide CCR1 receptor antagonists for the treatment of progressive renal fibrosis” (Schering Aktiengesellschaft, priority 2001, dated 2004):
# Assays:
# Conditions in all cases: mouse, in vivo
# [1] = system: unilateral ureteral obstruction (UUO), obstructed kidneys
# [2] = system: unilateral ureteral obstruction (UUO), obstructed kidneys; remark: listed apart in the source
# [3] = system: CCR5+ / CCR2+ T cells infiltrating the obstructed kidneys
structure (smiles),measurement,setting,value
"C[C@@H]1CN(Cc2ccc(F)cc2)CCN1C(=O)COc1ccc(Cl)cc1NC(N)=O [BX471, (2R)-1-((4-chloro-2-(ureido)phenoxy)methyl)carbonyl-2-methyl-4-(4-fluorobenzyl)piperazine]","tubular dilatation, obstructed kidneys",[1],unaffected
same,"tubular epithelial cell damage, obstructed kidneys",[1],unaffected
same,"mean number of activated fibroblasts in the peritubular interstitium, obstructed kidneys",[2],significantly decreased
same,"mean number of infiltrating leukocytes in the peritubular interstitium, obstructed kidneys",[2],significantly decreased
same,"number of activated fibroblasts, obstructed kidneys",[2],no significant decrease
same,"number of infiltrating leukocytes, obstructed kidneys",[2],no significant decrease
same,"number of CCR5+ CD4+, CCR2+ CD4+ or CCR2+ CD8+ T cells in obstructed kidneys, vehicle as compared to antagonist",[3],No increase
same,number of CCR5+ CD8+ T cells infiltrating the obstructed kidneys,[3],44.2%
